# Assay outcomes as filed in PubChem.
# Rows were chosen to be rich in hits. Some 2.3% of all compounds tested hit in one or more screens of this group.
# Nrf2 inh – Nrf2 pathway inhibition; AID 504444; 2.1% of 360,000 active; A549 ARE-Fluc reporter, luciferase luminescence, 18-24 h; Potency, µM (highest dose often 46 µM), for the others: top-dose activity change, negative = inhibition, actives largely listed as inhibitors; note: potency is the fitted concentration of half-maximal effect; % is set by controls: 0 for no effect and ±100 for the full control effect; nearly all actives have a fitted effect of over 60% in size
#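 Quantitative HTS in A549 cells stably bearing an antioxidant response element-firefly luciferase construct. Inhibition of Nrf2-driven transcription was scored by luminescence after 18-24 h of compound exposure at 37 °C.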
# Nrf2 ARE act – activates Nrf2 signaling | 0.31% of 410,000 active | AREc32 ARE-luciferase reporter (MCF7-derived line), luminescence, 24 h | AID 624171 | Potency, µM (highest dose often 46.1 µM), inactives show top-dose activation, actives largely listed as activators; note: potency is the fitted concentration of half-maximal effect; % of control where 0% means no effect; nearly all actives have a fitted effect of over 65% in size
#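 Steps: seed AREc32_Fluc cells (1000/well, 5% FBS OPTI-MEM); incubate overnight at 37 deg C; add 23 nL compound; incubate 24 hr; add Steady-Glo; hold 30 min RT; read luminescence.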
# Mito fusion act – mitochondrial division inhibition or fusion activation; S. cerevisiae fusion-defective mutant growth rescue, CellTiterGlo 48 h; Potency, µM (highest dose often 46.1 µM), for the others: top-dose growth rescue (activation), actives largely listed as activators; 0.23% of 320,000 active; AID 485298; note: potency is the fitted concentration of half-maximal effect; % of control where 0% means no effect; nearly all actives have a fitted effect of over 45% in size
#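 Yeast fusion mutant, YPEG (non-fermentable carbon), compound, 48 h at 37C non-permissive; CellTiterGlo added, 10 min RT, luminescence read. Rescued growth = division inhibition.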
# A549 tox – A549 cytotoxicity, counter-screen for Nrf2 inhibitors; AID 504648; A549 ARE-Fluc cells, CellTiter-Fluor viability, 18-24 h; Potency, µM (series often up to 46 µM), for the others: at the highest dose activity change, negative = cytotoxicity, usual class: inhibitors; 0.16% of 390,000 active; note: potency is the fitted concentration of half-maximal effect; % is set by controls: 0 for no effect and ±100 for the full control effect
#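 A549 ARE_Fluc cells in 5% FBS OPTI-MEM were exposed to compounds in concentration-response for 18-24 h at 37 deg C. Viability was read by CellTiter-Fluor fluorescence (Ex 405/Em 525) after 30 min, before the luciferase read.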
# miR-21 reporter – raises the signal of a miR-21 reporter; HeLa miR-21 FLuc reporter, luciferase, 48 h; Potency, µM (series often up to 38.3 µM), inactives show top-dose reporter change, positive = more light; 340,000 tested, under 10 active; active = well fitted rising curve with a large enough effect; inconclusive = small, poorly fitted or top-dose-only effect; inactive = no such curve, though single readings can be large or run the other way;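 also: % of control where 0% means no effect; miR-21 action dims this reporter so a rising signal means less miR-21 action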
#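 HeLa miR-21-FLuc reporter line, endogenous miR-21; 2000 cells/well in DMEM/10% FBS; compound titration up to ~40uM final, 48 h, 37 degree Celsius; luciferase detection reagent, 15 min lysis, CCD luminescence.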
# Numbers without * were called inactive; ? = inconclusive; / = no result. Unless noted, calls come from the whole dose curve; as a rule, active = well fitted curve in the direction sought with a large enough effect; inconclusive = small, poorly fitted or top-dose-only effect, or another doubt; inactive = no such curve, though single readings can be large; an effect the other way counts as inactive or inconclusive.
# Letter code – A = Nrf2 inh; B = Nrf2 ARE act; C = Mito fusion act; D = A549 tox; E = miR-21 reporter
O=C(Nc1cccc(S(=O)(=O)N2CCOCC2)c1)c1cc2ccccc2o1
  A: ? | B: 2.8% | C: 0.1% | D: ? | E: 0.1%

O=C(Nc1cccc(S(=O)(=O)N2CCCCC2)c1)c1ccc(S(=O)(=O)C(F)F)cc1
  A: 18.4µM* | B: 0.2% | C: -2.5% | D: -19.1% | E: 27.1%

O=C(Nc1cccc(-c2nc3ncccc3o2)c1)c1cc2ccccc2o1
  A: ? | B: -0.3% | C: 12.6µM* | D: -7.7% | E: -0.2%

O=C(Nc1cccc(S(=O)(=O)N2CCCCC2)c1)c1cc2ccccc2o1
  A: 23.1µM* | B: 1.7% | C: 11.9% | D: -12.5% | E: /

O=C(CNc1cccc(S(=O)(=O)N2CCCCC2)c1)Nc1ccc(C(F)(F)F)cc1
  A: / | B: 3.9% | C: / | D: / | E: /

O=C(CNc1cccc(S(=O)(=O)N2CCCC2)c1)Nc1ccc(C(F)(F)F)cc1
  A: 23.1µM* | B: -0.1% | C: -4.3% | D: -12.4% | E: /

CCOCCCNC(=O)c1[nH]c2cc(OC)ccc2c1Sc1ccccc1
  A: 25.9µM* | B: -0.1% | C: / | D: -23.6% | E: ?

CCOCCCNC(=O)c1cc(Sc2ccc(C)cc2)nc2ccccc12
  A: 23.1µM* | B: -1.7% | C: 13.8% | D: 3.1% | E: 6.4%

CCOc1ccc(C2C(C(=O)Nc3ccccc3)=C(C)Nc3nc(-c4ccccc4Cl)nn32)cc1OC (stereo not drawn)
  A: ? | B: 17.0% | C: / | D: -12.8% | E: -1.3%

Cc1nnc(NC(=O)CSCc2cc(=O)c3cc(Cl)ccc3[nH]2)s1
  A: / | B: -1.0% | C: / | D: 1.5% | E: -2.1%

CC(C)(C)c1ccc(C(=O)NCCCNC(=O)c2cccnc2)cc1
  A: 8.2µM* | B: -0.7% | C: -10.0% | D: -3.5% | E: -16.5%

COc1ccc(C(=O)NCCCNC(=O)c2cccnc2)cc1OC
  A: 10.3µM* | B: 0.3% | C: 7.9% | D: 1.4% | E: -4.2%

O=C1NC(=O)/C(=C/c2ccc(-c3ccc(F)cc3O)o2)S1
  A: / | B: / | C: 4.61µM* | D: / | E: /

O=C(Cn1c(=O)n(CC2CCCO2)c(=O)c2ccccc21)Nc1ccc(F)cc1F (stereo not drawn)
  A: 9.1% | B: -0.3% | C: / | D: -3.8% | E: -1.0%

COc1ccc(NS(=O)(=O)c2cccc(NC(=O)CCC(=O)c3ccc(Cl)cc3)c2)cc1
  A: 20.6µM* | B: 9.1% | C: -4.4% | D: -27.6% | E: 13.9%

O=S(=O)(c1ccc(Cl)cc1)c1nc(-c2cccc(Br)c2)oc1NCc1ccccc1
  A: 1.3% | B: 1.0% | C: / | D: 0.1% | E: -2.3%

CCc1ccc(-n2nc(C)c3c(C(=O)N4CCN(c5ccccc5)CC4)cc(C)nc32)cc1
  A: 18.4µM* | B: 4.4% | C: / | D: 0.2% | E: -1.9%

CCc1ccc(-n2nc(C)c3c(C(=O)N4CCN(c5cccc(Cl)c5)CC4)cc(C)nc32)cc1
  A: ? | B: 0.9% | C: / | D: 1.9% | E: 17.2%

O=S(=O)(NCCC(c1ccc(F)cc1)c1ccco1)c1ccccc1 (stereo not drawn)
  A: -14.2% | B: 4.2% | C: 22.4µM* | D: 12.7% | E: 6.0%

CCOc1ccc(/C=C/C(=O)Nc2sc3c(c2C(=O)OC)C(C(=O)OC)CC3)cc1 (stereo not drawn)
  A: 7.0% | B: 0.6% | C: / | D: 3.3% | E: 4.4%

COc1cccc(C2c3c(ncn(CCCN4CCOCC4)c3=N)Oc3ccc4ccccc4c32)c1 (stereo not drawn)
  A: -125.2% | B: / | C: / | D: 14.6µM* | E: /

C[C@@H]1[C@@H](Sc2ccccc2)CC(=O)O[C@@H]1c1ccc(-c2ccccc2)cc1
  A: 18.4µM* | B: ? | C: / | D: -7.7% | E: /

O=C1CC(C(=O)NC2CCCCC2)C(c2ccccc2)O1 (stereo not drawn)
  A: 11.7% | B: 0.1% | C: -2.0% | D: -1.1% | E: -10.0%

CC(C)c1cc(C(C)C)c(S(=O)(=O)Nc2cccc3cccnc23)c(C(C)C)c1
  A: ? | B: / | C: / | D: 11.0% | E: /

Cc1ccc(-c2ccc(S(=O)(=O)Nc3cccnc3)cc2)cc1
  A: 11.6µM* | B: 3.0% | C: 10.7% | D: 0.1% | E: 7.9%

Cc1ccc(S(=O)(=O)Nc2cccc3cccnc23)cc1
  A: 6.51µM* | B: ? | C: -0.4% | D: -24.9% | E: ?

Cc1ccc2nsnc2c1S(=O)(=O)Nc1cccc2cccnc12
  A: 8.2µM* | B: / | C: / | D: ? | E: /

O=C1c2ccccc2C(=O)c2cc(S(=O)(=O)Nc3cccc4cccnc34)ccc21
  A: 5.17µM* | B: / | C: / | D: -18.5% | E: /

Cc1oc2ccc(O)c(CN3CCN(C)CC3)c2c1C(=O)Nc1cccc(C(F)(F)F)c1
  A: 4.7% | B: 4.8% | C: / | D: 4.2% | E: 18.2%

NC(=O)c1c(NC(=O)CN2CCN(S(=O)(=O)c3ccccc3)CC2)sc2c1CCC2
  A: 18.4µM* | B: -0.6% | C: 2.8% | D: ? | E: /

CN1CCN(CC(=O)Nc2sc3c(c2C(=O)Nc2ccccc2)CCCC3)CC1
  A: 11.8% | B: -0.3% | C: -5.4% | D: -12.1% | E: -9.6%

CC(C)c1ccccc1NC(=S)NCCCn1ccnc1
  A: -4.8% | B: -0.4% | C: 1.58µM* | D: 3.3% | E: -0.2%

CCOc1ccc(NC(=S)NCCCn2ccnc2)cc1
  A: 8.0% | B: 0.0% | C: -5.5% | D: -2.7% | E: -2.3%

Cc1csc(NC(=O)CSCC(=O)Nc2ccccc2)n1
  A: / | B: 1.5% | C: -2.8% | D: 5.5% | E: -4.4%

Cc1[nH]c2ccccc2c1-c1csc(NC(=O)CSCCO)n1
  A: -2.2% | B: 6.5% | C: 20µM* | D: 1.8% | E: 12.3%

CN(C)c1ccc(CNC(=O)c2ccc(Cn3c(SCc4ccccc4)nc4cccnc43)cc2)cc1
  A: -13.6% | B: 5.3% | C: / | D: -13.5% | E: -9.7%

CN(CC(=O)NCCc1ccc(S(N)(=O)=O)cc1)Cc1c(F)cccc1Cl
  A: -4.7% | B: -0.5% | C: -26.4% | D: 3.8% | E: 5.5%

CN(CC(=O)NCCc1ccc(S(N)(=O)=O)cc1)Cc1ccc(Cl)cc1Cl
  A: 18.4µM* | B: 0.3% | C: -2.6% | D: -6.2% | E: 12.9%

Cc1ccc(OCc2nc(C#N)c(NCc3ccc4c(c3)OCO4)o2)cc1
  A: -5.9% | B: 0.3% | C: 8.91µM* | D: -0.6% | E: -8.6%

COC(=O)Nc1nc2c(C)cccc2s1
  A: 17.7% | B: ? | C: 2.1% | D: -2.0% | E: -28.7%

Cc1cccc2sc(NC(=O)C3CC3)nc12
  A: ? | B: ? | C: 0.2% | D: -0.6% | E: -26.7%

Cc1cccc2sc(NC(=O)c3ccc(Cl)s3)nc12
  A: 20.1% | B: 7.08µM* | C: -0.3% | D: 7.1% | E: -10.9%

Cc1cccc2sc(NC(=O)C3c4ccccc4Oc4ccccc43)nc12
  A: 20.6µM* | B: -0.2% | C: -15.4% | D: -11.1% | E: 0.2%

COc1ccc2c(c1)c(=O)c(C(=O)c1ccc(F)cc1)cn2CC(=O)Nc1ccc2c(c1)OCCO2
  A: ? | B: -0.2% | C: / | D: -15.0% | E: -11.2%

O=C(NCc1cccnc1)/C(=C\c1ccc(-c2ccc(Cl)c(Cl)c2)o1)S(=O)(=O)c1ccccc1
  A: 18.4µM* | B: ? | C: -19.6% | D: ? | E: ?

O=C(COC(=O)c1ccc2ncsc2c1)NC(=O)C1CCCCC1
  A: ? | B: / | C: / | D: 12.0% | E: /

Cc1ccc(NC(=O)c2cnn(-c3ccc(C)c(C)c3)c2C2CCN(C(=O)OC(C)(C)C)CC2)c(C)c1
  A: ? | B: 0.1% | C: / | D: -3.8% | E: -4.5%

N#Cc1nc(Nc2ccccc2)nc(NC2CCCC2)n1
  A: -14.6% | B: / | C: / | D: -7.1% | E: /

N#Cc1nc(Nc2cccc3ccccc23)nc(NC2CCCC2)n1
  A: 18.4µM* | B: / | C: / | D: -22.6% | E: /

Cc1ccccc1Nc1nc(C#N)nc(NC2CCCC2)n1
  A: 9.2µM* | B: / | C: / | D: -18.4% | E: /

O=C(Nc1ncnc2nc[nH]c12)c1ccccc1
  A: 16.2% | B: / | C: / | D: 5.0% | E: /

# Among those listed so far, these contain a cyano group.
# Letter code – A = Nrf2 inh; B = Nrf2 ARE act; C = Mito fusion act; D = A549 tox; E = miR-21 reporter
Cc1ccc(OCc2nc(C#N)c(NCc3ccc4c(c3)OCO4)o2)cc1
  A: -5.9% | B: 0.3% | C: 8.91µM* | D: -0.6% | E: -8.6%

N#Cc1nc(Nc2ccccc2)nc(NC2CCCC2)n1
  A: -14.6% | B: / | C: / | D: -7.1% | E: /

N#Cc1nc(Nc2cccc3ccccc23)nc(NC2CCCC2)n1
  A: 18.4µM* | B: / | C: / | D: -22.6% | E: /

Cc1ccccc1Nc1nc(C#N)nc(NC2CCCC2)n1
  A: 9.2µM* | B: / | C: / | D: -18.4% | E: /
